Values quoted from earlier work, collected in publication PMC11266932, “Enhanced absorption of prenylated cinnamic acid derivatives from Brazilian green propolis by turmeric in humans and rats” (Food Science & Nutrition, 2024).

Conditions: hydrolyzed to drupanin and 3‐phenylpropionic acid; ref Yamaga et al., 2021, 2022; cited from earlier work

For Baccharin, the “detection in plasma after BGP consumption” value is listed as “not detected”.
